scFv variants of Ab-14 (light chain) against a SARS-CoV-2 spike peptide

Binding partner: SARS-CoV-2 spike HR2 peptide, sequence PDVDLGDISGINAS.

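The parent was found by panning a naive human phage display library on the peptide. Variants in AAYL50 differ from the parent at up to three CDR positions; double and triple changes were sampled at random. The scFvs were displayed on barcoded MATa yeast, the peptide on MATalpha yeast. After mating in shaken culture at 30 °C for 16 h, diploids were selected and their barcode pairs sequenced. Read counts were normalised to the haploid input and turned into Kd by a linear fit to BCL2-family pairs of known affinity, for each replicate. There are three technical replicates.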

Parent: Ab-14, a human scFv built as VH, a (GGGGS)3 linker, VL. Only the CDRs of the light chain vary.
VH: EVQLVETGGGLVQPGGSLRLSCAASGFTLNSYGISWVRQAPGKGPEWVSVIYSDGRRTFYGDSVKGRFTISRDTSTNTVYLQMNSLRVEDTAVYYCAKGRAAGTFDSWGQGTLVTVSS
VL: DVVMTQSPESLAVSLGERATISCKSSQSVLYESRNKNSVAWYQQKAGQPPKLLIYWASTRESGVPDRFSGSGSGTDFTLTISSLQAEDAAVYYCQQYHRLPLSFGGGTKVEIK

Substitutions are numbered in sequence along the VL above, starting at 1 (not Kabat). All variants listed here change A40 of the VL, counted from its first residue. Kd is apparent (estimated from mating counts) and averaged on the log scale over replicates with a signal. Smaller is tighter. An entry "nd" has no value in the source: the pair was not observed among the diploids in any replicate. This suggests poor binding but is not conclusive. Parent in this assay: reference entry 4.4 nM, copy in this library 48 nM. Empty control strains, which show no peptide, gave a signal in 18% of pairings with library AAYL50; the median was 15 µM and 95% of these signals were weaker than 970 nM. No background was subtracted. For each scFv, signals with the empty controls are counted beside the result.

The variant S28G+A40Q+H98G showed 10 nM (3 of 3 replicates; controls 4 of 9). The variant A40V+A57S+Q96R gave nd (0 of 3 replicates; controls 0 of 9). The variant R34D+A40I gave nd (0 of 3 replicates; controls 1 of 9). The variant Q27H+S28I+A40C gave 29 µM (3 of 3 replicates; controls 1 of 9). The variant Y31E+A40I+R99K showed 2.3 µM (1 of 3 replicates; controls 1 of 9). With E32H+S38E+A40W the result was 9.4 µM (1 of 3 replicates; controls 2 of 9). For N37M+A40N+Q95K, the assay gave 340 µM (2 of 3 replicates; controls 4 of 9).

The variant S25E+A40R+R60G showed 13 µM (3 of 3 replicates; controls 4 of 9). The variant K36Y+A40G+S58L showed 22 µM (3 of 3 replicates; controls 2 of 9). With S26R+A40N+H98S the result was nd (0 of 3 replicates; controls 1 of 9). The variant S33A+A40F+W56H showed nd (0 of 3 replicates; controls 0 of 9). The variant S33T+A40V+E61C showed nd (0 of 3 replicates; controls 2 of 9). For L30I+A40L+A57G, the assay gave nd (0 of 3 replicates; controls 2 of 9). With S38V+A40Q+Q95S the result was nd (0 of 3 replicates; controls 2 of 9).

With K24E+S38R+A40Y the result was nd (0 of 3 replicates; controls 0 of 9). With A40S+S62Y the result was nd (0 of 3 replicates; controls 1 of 9). For L30Q+A40E+W56H, the assay gave nd (0 of 3 replicates; controls 2 of 9). The variant E32F+A40S+P101R showed 350 nM (3 of 3 replicates; controls 1 of 9). With Y31A+A40D+E61K the result was nd (0 of 3 replicates; controls 1 of 9). The variant E32S+V39D+A40Y gave nd (0 of 3 replicates; controls 1 of 9). With A40T+S58Q+S103W the result was 420 µM (1 of 3 replicates; controls 3 of 9).

The variant Y31C+V39M+A40I gave 49 µM (2 of 3 replicates; controls 7 of 9). With K36C+A40H+S103G the result was 130 µM (1 of 3 replicates; controls 3 of 9). With A40S+S62F+Q95K the result was nd (0 of 3 replicates; controls 1 of 9). The variant S26E+R34T+A40S gave 800 nM (3 of 3 replicates; controls 1 of 9). The variant S25F+A40Q+S58N showed nd (0 of 3 replicates; controls 0 of 9). With A40V+W56R+T59R the result was nd (0 of 3 replicates; controls 4 of 9). The variant E32W+A40C+E61M showed 13 µM (2 of 3 replicates; controls 6 of 9).

With A40N+S58K+L102W the result was 2.3 nM (3 of 3 replicates; controls 1 of 9). The variant N37E+A40P+S62N showed 120 µM (3 of 3 replicates; controls 4 of 9). For E32Y+A40K+H98C, the assay gave nd (0 of 3 replicates; controls 1 of 9). With A40H+W56S the result was nd (0 of 3 replicates; controls 1 of 9). The variant N37L+A40K+T59A gave nd (0 of 3 replicates; controls 0 of 9). The variant A40F+P101E showed 91 µM (2 of 3 replicates; controls 4 of 9). The variant A40F+E61S+P101K showed 13 µM (1 of 3 replicates; controls 0 of 9).

The variant S38W+A40I+H98Y gave nd (0 of 3 replicates; controls 0 of 9). For Q27C+A40H+W56E, the assay gave 21 nM (3 of 3 replicates; controls 4 of 9). The variant S28F+S33K+A40Q showed nd (0 of 3 replicates; controls 0 of 9). The variant K24H+Q27V+A40L gave nd (0 of 3 replicates; controls 4 of 9). For A40I+Y97P+P101W, the assay gave nd (0 of 3 replicates; controls 2 of 9). The variant Q27W+V29W+A40R gave 14 µM (2 of 3 replicates; controls 2 of 9). The variant S28A+A40D+S103Y showed nd (0 of 3 replicates; controls 1 of 9).

The variant A40Y+Q96G+P101Y showed nd (0 of 3 replicates; controls 1 of 9). With N35P+A40Y+Q95I the result was nd (0 of 3 replicates; controls 1 of 9). The variant A40C+R60N+H98V gave 1.3 mM (1 of 3 replicates; controls 1 of 9). For V39H+A40K+W56K, the assay gave nd (0 of 3 replicates; controls 0 of 9).

7 of these entries, quoted again:

changes	apparent Kd	seen in	control signals
L30I+A40L+A57G	nd	0 of 3	2 of 9
A40I+Y97P+P101W	nd	0 of 3	2 of 9
N37M+A40N+Q95K	340 µM	2 of 3	4 of 9
E32Y+A40K+H98C	nd	0 of 3	1 of 9
A40C+R60N+H98V	1.3 mM	1 of 3	1 of 9
K36C+A40H+S103G	130 µM	1 of 3	3 of 9
A40H+W56S	nd	0 of 3	1 of 9

Reference: Engelhart et al. 2022, doi:10.1038/s41597-022-01779-4. File: FLAb, binding data.